# Apparent affinities of Ab-14 variants for a coronavirus HR2 peptide

All variants were tested on one target, the spike HR2 peptide PDVDLGDISGINAS (SARS-CoV-2).

Ab-14 is the parent antibody, in scFv form: VH, then a (GGGGS)3 linker, then VL. The heavy chain is unchanged in all variants.
VH: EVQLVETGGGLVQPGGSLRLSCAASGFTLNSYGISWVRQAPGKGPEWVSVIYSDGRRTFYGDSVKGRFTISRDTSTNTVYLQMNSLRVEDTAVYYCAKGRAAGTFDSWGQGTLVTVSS
VL: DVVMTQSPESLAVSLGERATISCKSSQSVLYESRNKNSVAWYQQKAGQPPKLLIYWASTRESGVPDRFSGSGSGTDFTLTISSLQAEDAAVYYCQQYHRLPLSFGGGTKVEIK

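These sequences belong to a second round, designed from the earlier measurements on random variants of the parent. Their group label is 14L_En_HC (En: ensemble of fine-tuned language models; HC: hill climbing; a sequence that several methods proposed may carry one label only). The assay is AlphaSeq: two haploid yeast populations carry antibody and antigen on their surface. The frequency of each diploid, read from paired DNA barcodes, reflects how well the two displayed proteins bind. Read counts were normalised to the haploid input and turned into Kd by a linear fit to BCL2-family pairs of known affinity, for each replicate. Mating was done six times.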

Each variant is given by its three light chain CDRs, as the data file delimits them; those of the parent are KSSQSVLYESRNKNSVA, WASTRES, QQYHRLPLS. Scale: log10 of Kd in nM, estimated from mating counts; low values are strong binders. A pair that was not seen in that replicate is written "nd"; this usually means weak binding, but a binder can also be missed.

For HLGDTVMQGSYYRNSVA | QESTRAD | QQYHRLPLS, the assay gave 0.39, 0.29, 0.24, -0.17, 0.30, 0.27 (controls 1 of 18).
For MMSMGYLGGMRAKNNVA | QEETRES | QQYHRLPFI, the assay gave 1.12, 1.36, 1.28, 1.26, 0.90, 1.56 (controls 1 of 18).
For QLLMATMQGTYNRNSVA | HAQTRND | QSYHRLPLA, the assay gave 1.82, 0.50, 1.35, 1.16, 0.77, 1.41 (controls 0 of 18).
For MISDLTMYGLRNVNSVA | DLSTRGS | QQYDRLPLS, the assay gave 0.86, 0.84, 0.81, 1.19, 0.94, 1.07 (controls 2 of 18).
For QLLMATMQETYSKNSVA | HAETRED | QSYHRLPLS, the assay gave 0.57, 0.65, 0.64, 0.90, 0.34, 0.68 (controls 4 of 18).
For HISMMVGTKGGARNSVA | NEETRYD | QQYHRLPLS, the assay gave 0.66, 0.69, 0.63, 0.63, 0.86, 0.89 (controls 0 of 18).
For MLSDLVKMGSRNRNSVA | DNSTRGS | QQYDRLPLS, the assay gave nd, nd, 2.53, 3.51, nd, 3.37 (controls 3 of 18).
For HVSESVFMQSKMRNSVA | ENSTRES | QQYDRLPLS, the assay gave 1.32, 1.90, 1.71, 1.25, 1.50, 1.76 (controls 0 of 18).
For MISESVMYESRNRNSVA | DNSTRED | QCYDRLPLS, the assay gave 2.18, 1.83, 1.89, 1.55, 2.20, 2.11 (controls 0 of 18).
For KLSQLTYKESRNKNNVA | EMTTRGS | QQYDRLPLS, the assay gave nd, nd, nd, nd, nd, nd (controls 0 of 18).
For KISQMYRYEQQNSDSIA | EVTTRLN | QSYHRLPLS, the assay gave 2.22, 2.24, nd, 2.42, 2.17, 2.54 (controls 1 of 18).
For HMSQVTMYGYWHKNSVA | QTSTREE | QQYDRLPLS, the assay gave nd, 1.84, 0.92, 1.33, 0.91, 1.34 (controls 1 of 18).
For SLMQVGGYESNVKNSIA | DLRTRES | QQYHRLPLS, the assay gave 0.93, 0.65, 0.58, 0.71, 0.65, 0.70 (controls 0 of 18).
For TISQMWFIESKNRNNVA | EMTTREQ | QDYDRLPLS, the assay gave 1.38, 1.43, 1.10, 1.47, 1.22, 1.16 (controls 0 of 18).
For KLRQSTHIESFNKNNVA | EMTTREY | QSYDRLPLS, the assay gave 1.14, 1.47, 0.83, 1.21, 1.08, 1.33 (controls 2 of 18).
For KLSMLVDYMSATHSSVA | QTSTREE | QQYHRLPLS, the assay gave 0.61, 0.25, 0.66, 0.32, 0.30, 0.81 (controls 2 of 18).
For KLSIMYQHTSRQKNNIA | ERSTRES | QQYHHLPLS, the assay gave 1.81, 1.28, 0.52, 0.51, 1.17, 1.11 (controls 0 of 18).
For IISDLTMYGSRNKNSVA | DLSTRGS | QQYHRLPLS, the assay gave 0.26, 0.19, -0.10, 0.01, 0.02, 0.34 (controls 0 of 18).
For MISQLFMYGSRNYNSVA | QASTREN | QQYDRLPLI, the assay gave 0.60, 0.39, 0.69, 1.40, 0.44, 0.99 (controls 0 of 18).
For SLMQVGGYESNRKNSIA | DLRTRES | QQYHRLPLS, the assay gave 0.61, 0.76, 0.47, 1.03, 0.74, 0.67 (controls 1 of 18).
For KSLQSVLYESRNKNSVA | HASTRED | QQYHRLPLS, the assay gave 0.54, 0.20, 0.00, 0.18, 0.16, 0.27 (controls 1 of 18).
For KLLQTVMNETRNRNNVA | HMTTRED | QQYHTLPLS, the assay gave nd, 2.40, 0.73, nd, 1.46, 2.40 (controls 1 of 18).
For TISQSWLFESRNKNNVA | EMSTREN | QDYDRLPLS, the assay gave 0.42, 0.54, 0.80, 0.15, 0.29, 0.45 (controls 0 of 18).
For MITAMLRGVGRDKNSVA | NAQTRES | QHYNRLPLS, the assay gave 2.07, 1.75, 2.20, 2.23, 1.29, nd (controls 2 of 18).
For MISDLTMYGSRNVYSVA | DLSTRGS | QQYHRLPLS, the assay gave 0.56, 0.23, 0.28, 0.23, 0.25, 0.23 (controls 1 of 18).
For KLRVSTAYLSENKNSVA | ELSTRGS | QQYFRLPLS, the assay gave 0.70, 0.33, 0.28, 0.42, 0.40, 0.30 (controls 0 of 18).
For KISGYLNKESKAKNNVA | EMVNRMS | QQYDRLPLS, the assay gave -0.43, -0.58, -0.47, -0.51, -0.39, 0.03 (controls 0 of 18).
For NVGQSMDGEMRNKNSVA | HQSTRED | QHYHRLPLS, the assay gave 1.42, 0.92, 0.87, 1.83, 0.82, 0.54 (controls 0 of 18).
For TISHSTDLESVHKNNIA | DLMTRES | QQYDRLPLS, the assay gave 0.44, 0.32, 0.29, 0.32, 0.38, 0.49 (controls 1 of 18).
For MFSQLMEYGSRYKNSIA | QASTRED | QQYHWLPLS, the assay gave 1.03, 0.66, 0.51, 0.60, 0.46, 0.96 (controls 1 of 18).
For KIYAATMLESHDKNSIA | DLSTRGN | QQYHRLPLS, the assay gave 0.23, 0.33, 0.19, -0.04, 0.18, 0.36 (controls 0 of 18).
For TLTQVTMVESYAKNSVA | QASTRLE | QDYHRLPLS, the assay gave 0.58, 0.22, 0.39, 0.17, 0.25, 0.34 (controls 1 of 18).
For KQSQSVLYESRNKNSVA | DASTRES | QQYFRLPLS, the assay gave 0.07, -0.17, -0.22, -0.10, -0.19, 0.16 (controls 1 of 18).
For QLMQVGGYEMNAHNSIA | DLRTREN | QQYHRLPLS, the assay gave 0.98, 0.68, 0.90, 0.90, 0.60, 0.94 (controls 0 of 18).

Picked from the list: the 4 lowest averages where every replicate gave a value.

| CDR-L1 | CDR-L2 | CDR-L3 | log10 Kd, replicates | control signals |
|---|---|---|---|---|
| KISGYLNKESKAKNNVA | EMVNRMS | QQYDRLPLS | -0.43, -0.58, -0.47, -0.51, -0.39, 0.03 | 0 of 18 |
| KQSQSVLYESRNKNSVA | DASTRES | QQYFRLPLS | 0.07, -0.17, -0.22, -0.10, -0.19, 0.16 | 1 of 18 |
| IISDLTMYGSRNKNSVA | DLSTRGS | QQYHRLPLS | 0.26, 0.19, -0.10, 0.01, 0.02, 0.34 | 0 of 18 |
| KIYAATMLESHDKNSIA | DLSTRGN | QQYHRLPLS | 0.23, 0.33, 0.19, -0.04, 0.18, 0.36 | 0 of 18 |

Background: pairings of all light chain designs with three empty control strains gave a value in 4% of cases (median 2.64, 5th percentile 1.59). Values in that range, when seen in few replicates, are hard to tell from nonspecific mating. For each scFv, signals with the empty controls are counted beside the result. Values of this round are not directly comparable with the first-round values of the same sequences. The authors' rule: three or more of the six replicates give a measured affinity, fewer mean a poor binder. Of ten entries with the parent sequence, four were seen in most replicates (averages 0.34 to 2.37), three in one and three in none, so single entries are noisy.

Data: MIT Lincoln Laboratory AlphaSeq set, Li et al. 2023, doi:10.1038/s41467-023-39022-2, as distributed in FLAb.